These results are taken from US9320722B2, “Regulators of aldehyde dehydrogenase ALDH3A1 and related therapeutic methods” (Indiana University Research and Technology Corporation, priority 2013, dated 2016).

The test system of the test is SF767 cells. In words: MTT assay for cell proliferation / mafosfamide sensitivity, SF767. In kind it is cell-based. The settings on record: 10 μM inhibitor + mafosfamide. In general terms: Tetrazolium assays rely on reduction of a dye to a coloured formazan, in cell work by metabolically active cells.
On to `Cc1nc2ccccc2n1S(=O)(=O)c1ccc(F)cc1` [CB7, 1-[(4-fluorophenyl)sulfonyl]-2-methyl-1H-benzimidazole], for which the “chemosensitivity to mafosfamide (in words), SF767” value (shortened to “chemosensitivity to mafosfamide”) was “significantly increased chemosensitivity”.

As for `COc1cc(S(=O)(=O)n2c(C)nc3ccccc32)ccc1Cl` [Compound A64], the “chemosensitivity to mafosfamide” value was “significantly increased chemosensitivity”.

For `COc1cc(S(=O)(=O)n2c(C)nc3ccccc32)ccc1F` [Compound A70], the “chemosensitivity to mafosfamide” value is reported as “significantly increased chemosensitivity”.
